# PubChem BioAssay (NCI)
#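 Where inhibition never reached the appropriate level, the endpoint shown equals the highest concentration tested. Otherwise, values were interpolated linearly from a five-concentration, 48-hour dose response in 96-well plates. The concentration for 50% growth inhibition is given as GI50. TGI: total growth inhibition.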
# Legend:
# Test in all cases: growth of human tumour cells (NCI), 48 h
# SF-539 CNS = test system: SF-539 CNS
# HCT-15 colon = test system: HCT-15 colon
# CAKI-1 renal = test system: CAKI-1 renal
# HL-60(TB) leukemia = test system: HL-60(TB) leukemia
# SK-MEL-28 melanoma = test system: SK-MEL-28 melanoma
# XF 498 CNS = test system: XF 498 CNS
# SNB-75 CNS = test system: SNB-75 CNS
# NCI-H322M lung = test system: NCI-H322M lung
# KM20L2 colon = test system: KM20L2 colon
# UO-31 renal = test system: UO-31 renal
# U251 CNS = test system: U251 CNS
# KM12 colon = test system: KM12 colon
# SF-295 CNS = test system: SF-295 CNS
# M19-MEL melanoma = test system: M19-MEL melanoma
# OVCAR-3 ovarian = test system: OVCAR-3 ovarian
# LXFL 529 NSCLC = test system: LXFL 529 NSCLC
# A498 renal = test system: A498 renal
# SW-620 colon = test system: SW-620 colon
# HT29 colon = test system: HT29 colon
# UACC-257 melanoma = test system: UACC-257 melanoma
# TK-10 renal = test system: TK-10 renal
# SF-268 CNS = test system: SF-268 CNS
# ACHN renal = test system: ACHN renal
# MALME-3M melanoma = test system: MALME-3M melanoma
# SNB-78 CNS = test system: SNB-78 CNS
# NCI-H23 lung = test system: NCI-H23 lung
# A549 NSCLC = test system: A549 NSCLC
# CCRF-CEM leukemia = test system: CCRF-CEM leukemia
# SK-OV-3 ovarian = test system: SK-OV-3 ovarian
# NCI-H460 lung = test system: NCI-H460 lung
# SNB-19 CNS = test system: SNB-19 CNS
# IGROV1 ovarian = test system: IGROV1 ovarian
# HCC-2998 colon = test system: HCC-2998 colon
# RPMI-8226 leukemia = test system: RPMI-8226 leukemia
# HOP-18 NSCLC = test system: HOP-18 NSCLC
# UACC-62 melanoma = test system: UACC-62 melanoma
# MOLT-4 leukemia = test system: MOLT-4 leukemia
# SK-MEL-5 melanoma = test system: SK-MEL-5 melanoma
# NCI-H226 lung = test system: NCI-H226 lung
# K-562 leukemia = test system: K-562 leukemia
# SK-MEL-2 melanoma = test system: SK-MEL-2 melanoma
# DMS 114 small cell lung = test system: DMS 114 small cell lung
# SN12C renal = test system: SN12C renal
# DMS 273 small cell lung = test system: DMS 273 small cell lung
# HOP-62 NSCLC = test system: HOP-62 NSCLC
# COLO 205 colon = test system: COLO 205 colon
# LOX IMVI melanoma = test system: LOX IMVI melanoma
# OVCAR-8 ovarian = test system: OVCAR-8 ovarian
# EKVX NSCLC = test system: EKVX NSCLC
# OVCAR-4 ovarian = test system: OVCAR-4 ovarian
# OVCAR-5 ovarian = test system: OVCAR-5 ovarian
# HCT-116 colon = test system: HCT-116 colon
# NCI-H522 lung = test system: NCI-H522 lung
# 786-0 renal = test system: 786-0 renal
compound,measurement,setting,value
S=P1(Oc2ccccc2)NNP2(=NP(Cl)(Cl)=NP(Cl)(Cl)=N2)NN1 (stereo not drawn),GI50,SF-539 CNS,> 100 µM
same,TGI,SF-539 CNS,> 100 µM
same,GI50,HCT-15 colon,> 100 µM
same,TGI,HCT-15 colon,> 100 µM
same,GI50,CAKI-1 renal,> 100 µM
same,TGI,CAKI-1 renal,> 100 µM
same,GI50,HL-60(TB) leukemia,> 100 µM
same,TGI,HL-60(TB) leukemia,> 100 µM
same,GI50,SK-MEL-28 melanoma,> 100 µM
same,TGI,SK-MEL-28 melanoma,> 100 µM
same,GI50,XF 498 CNS,> 100 µM
same,TGI,XF 498 CNS,> 100 µM
same,GI50,SNB-75 CNS,85.2 µM
same,TGI,SNB-75 CNS,> 100 µM
same,GI50,NCI-H322M lung,> 100 µM
same,TGI,NCI-H322M lung,> 100 µM
same,GI50,KM20L2 colon,> 100 µM
same,TGI,KM20L2 colon,> 100 µM
same,GI50,UO-31 renal,> 100 µM
same,TGI,UO-31 renal,> 100 µM
same,GI50,U251 CNS,> 100 µM
same,TGI,U251 CNS,> 100 µM
same,GI50,KM12 colon,> 100 µM
same,TGI,KM12 colon,> 100 µM
same,GI50,SF-295 CNS,> 100 µM
same,TGI,SF-295 CNS,> 100 µM
same,GI50,M19-MEL melanoma,> 100 µM
same,TGI,M19-MEL melanoma,> 100 µM
same,GI50,OVCAR-3 ovarian,> 100 µM
same,TGI,OVCAR-3 ovarian,> 100 µM
same,GI50,LXFL 529 NSCLC,> 100 µM
same,TGI,LXFL 529 NSCLC,> 100 µM
same,GI50,A498 renal,> 100 µM
same,TGI,A498 renal,> 100 µM
same,GI50,SW-620 colon,> 100 µM
same,TGI,SW-620 colon,> 100 µM
same,GI50,HT29 colon,> 100 µM
same,TGI,HT29 colon,> 100 µM
same,GI50,UACC-257 melanoma,> 100 µM
same,TGI,UACC-257 melanoma,> 100 µM
same,GI50,TK-10 renal,> 100 µM
same,TGI,TK-10 renal,> 100 µM
same,GI50,SF-268 CNS,> 100 µM
same,TGI,SF-268 CNS,> 100 µM
same,GI50,ACHN renal,> 100 µM
same,TGI,ACHN renal,> 100 µM
same,GI50,MALME-3M melanoma,> 100 µM
same,TGI,MALME-3M melanoma,> 100 µM
same,GI50,SNB-78 CNS,> 100 µM
same,TGI,SNB-78 CNS,> 100 µM
same,GI50,NCI-H23 lung,> 100 µM
same,TGI,NCI-H23 lung,> 100 µM
same,GI50,A549 NSCLC,> 100 µM
same,TGI,A549 NSCLC,> 100 µM
same,GI50,CCRF-CEM leukemia,> 100 µM
same,TGI,CCRF-CEM leukemia,> 100 µM
same,GI50,SK-OV-3 ovarian,> 100 µM
same,TGI,SK-OV-3 ovarian,> 100 µM
same,GI50,NCI-H460 lung,> 100 µM
same,TGI,NCI-H460 lung,> 100 µM
same,GI50,SNB-19 CNS,> 100 µM
same,TGI,SNB-19 CNS,> 100 µM
same,GI50,IGROV1 ovarian,> 100 µM
same,TGI,IGROV1 ovarian,> 100 µM
same,GI50,HCC-2998 colon,> 100 µM
same,TGI,HCC-2998 colon,> 100 µM
same,GI50,RPMI-8226 leukemia,> 100 µM
same,TGI,RPMI-8226 leukemia,> 100 µM
same,GI50,HOP-18 NSCLC,> 100 µM
same,TGI,HOP-18 NSCLC,> 100 µM
same,GI50,UACC-62 melanoma,> 100 µM
same,TGI,UACC-62 melanoma,> 100 µM
same,GI50,MOLT-4 leukemia,> 100 µM
same,TGI,MOLT-4 leukemia,> 100 µM
same,GI50,SK-MEL-5 melanoma,> 100 µM
same,TGI,SK-MEL-5 melanoma,> 100 µM
same,GI50,NCI-H226 lung,> 100 µM
same,TGI,NCI-H226 lung,> 100 µM
same,GI50,K-562 leukemia,> 100 µM
same,TGI,K-562 leukemia,> 100 µM
same,GI50,SK-MEL-2 melanoma,> 100 µM
same,TGI,SK-MEL-2 melanoma,> 100 µM
same,GI50,DMS 114 small cell lung,> 100 µM
same,TGI,DMS 114 small cell lung,> 100 µM
same,GI50,SN12C renal,> 100 µM
same,TGI,SN12C renal,> 100 µM
same,GI50,DMS 273 small cell lung,> 100 µM
same,TGI,DMS 273 small cell lung,> 100 µM
same,GI50,HOP-62 NSCLC,> 100 µM
same,TGI,HOP-62 NSCLC,> 100 µM
same,GI50,COLO 205 colon,> 100 µM
same,TGI,COLO 205 colon,> 100 µM
same,GI50,LOX IMVI melanoma,> 100 µM
same,TGI,LOX IMVI melanoma,> 100 µM
same,GI50,OVCAR-8 ovarian,> 100 µM
same,TGI,OVCAR-8 ovarian,> 100 µM
same,GI50,EKVX NSCLC,> 100 µM
same,TGI,EKVX NSCLC,> 100 µM
same,GI50,OVCAR-4 ovarian,> 100 µM
same,TGI,OVCAR-4 ovarian,> 100 µM
same,GI50,OVCAR-5 ovarian,> 100 µM
same,TGI,OVCAR-5 ovarian,> 100 µM
same,GI50,HCT-116 colon,> 100 µM
same,TGI,HCT-116 colon,> 100 µM
same,GI50,NCI-H522 lung,> 100 µM
same,TGI,NCI-H522 lung,> 100 µM
same,GI50,786-0 renal,> 100 µM
same,TGI,786-0 renal,> 100 µM
